In patent US10188639B2, “Methods of treating neurological, metabolic, and other disorders using enantiopure deuterium-enriched pioglitazone” (DeuteRx, LLC, priority 2014, dated 2019):

Tests used:
[1] = human plasma; for k RS, enantiomerization h-R-pio to h-S-pio / k SR, enantiomerization h-S-pio to h-R-pio: fitted
[2] = mouse plasma; for k RS, enantiomerization h-R-pio to h-S-pio / k SR, enantiomerization h-S-pio to h-R-pio: fitted
[3] = system: db/db mice; experiment: db/db mouse model of type II diabetes, 10-day daily oral dosing; conditions: for decrease of serum amyloid A: 10 days daily oral, d-R-pio 20 mg/kg, h-rac-pio 30 mg/kg, vs. vehicle; for serum triglycerides: 20 mg/kg daily oral gavage, 10 days, compared with h-rac-pio 30 mg/kg
[4] = average of the h-S and h-R fits, fixed in the d-rac analysis

| SMILES | decrease of serum amyloid A [3] | serum triglycerides [3] | k RS, enantiomerization h-R-pio to h-S-pio ([1]; 37° C.) | k SR, enantiomerization h-S-pio to h-R-pio ([1]; 37° C.) | k RS, enantiomerization h-R-pio to h-S-pio ([2]; 37° C.) | k SR, enantiomerization h-S-pio to h-R-pio ([2]; 37° C.) | further results |
| --- | --- | --- | --- | --- | --- | --- | --- |
| [2H]C1(Cc2ccc(OCCc3ccc(CC)cn3)cc2)SC(=O)NC1=O (racemic) [d-rac-pio] | – | – | – | – | – | – | k DRR, D/H exchange d-R-pio to h-R-pio ([1]; 37° C.): 7.58e-06 s⁻¹; k DRS, D/H exchange d-R-pio to h-S-pio ([1]; 37° C.): 4.61e-05 s⁻¹; k DSR, D/H exchange d-S-pio to h-R-pio ([1]; 37° C.): 4.5e-05 s⁻¹; k DSS, D/H exchange d-S-pio to h-S-pio ([1]; 37° C.): 5.81e-05 s⁻¹; k RS*, enantiomerization h-R-pio to h-S-pio [1, 4]: 0.440 h⁻¹; k SR*, enantiomerization h-S-pio to h-R-pio [1, 4]: 0.433 h⁻¹; k DRR, D/H exchange d-R-pio to h-R-pio ([2]; 37° C.): 6.06e-05 s⁻¹; k DRS, D/H exchange d-R-pio to h-S-pio ([2]; 37° C.): 3.92e-05 s⁻¹; k DSR, D/H exchange d-S-pio to h-R-pio ([2]; 37° C.): 3.28e-05 s⁻¹; k DSS, D/H exchange d-S-pio to h-S-pio ([2]; 37° C.): 0.0002883 s⁻¹; k RS*, enantiomerization h-R-pio to h-S-pio [2, 4]: 0.743 h⁻¹; k SR*, enantiomerization h-S-pio to h-R-pio [2, 4]: 0.924 h⁻¹ |
| CCc1ccc(CCOc2ccc(CC3SC(=O)NC3=O)cc2)nc1 (racemic) [h-rac-pio, rac-5-({p-[2-(5-Ethyl-2-pyridyl)ethoxy]phenyl}methyl)-1,3-thiazolidine-2,4-dione, reference compound] | statistically significant | – | – | – | – | – | – |
| [2H][C@]1(Cc2ccc(OCCc3ccc(CC)cn3)cc2)SC(=O)NC1=O [d-R-pio, (R)-5-({p-[2-(5-Ethyl-2-pyridyl)ethoxy]phenyl}methyl)-(5-^2H)-1,3-thiazolidine-2,4-dione] | statistically significant | The same was observed | – | – | – | – | – |
| [2H][C@@]1(Cc2ccc(OCCc3ccc(CC)cn3)cc2)SC(=O)NC1=O [d-S-pio, (S)-5-({p-[2-(5-Ethyl-2-pyridyl)ethoxy]phenyl}methyl)-(5-^2H)-1,3-thiazolidine-2,4-dione] | – | The same was observed | – | – | – | – | – |
| CCc1ccc(CCOc2ccc(C[C@H]3SC(=O)NC3=O)cc2)nc1 [h-R-pio, reference compound] | – | – | 0.447 h⁻¹ | 0.439 h⁻¹ | 0.694 h⁻¹ | 0.867 h⁻¹ | – |
| CCc1ccc(CCOc2ccc(C[C@@H]3SC(=O)NC3=O)cc2)nc1 [h-S-pio, reference compound] | – | – | 0.434 h⁻¹ | 0.427 h⁻¹ | 0.792 h⁻¹ | 0.979 h⁻¹ | – |

Where two headings read alike, the source gives them in different places.
